{"sequences": {"note": "Sequences of proteins named here, by UniProt entry; tags and fusion partners are left off.", "UniProt A0A1D8PTB4, entry or part of it": "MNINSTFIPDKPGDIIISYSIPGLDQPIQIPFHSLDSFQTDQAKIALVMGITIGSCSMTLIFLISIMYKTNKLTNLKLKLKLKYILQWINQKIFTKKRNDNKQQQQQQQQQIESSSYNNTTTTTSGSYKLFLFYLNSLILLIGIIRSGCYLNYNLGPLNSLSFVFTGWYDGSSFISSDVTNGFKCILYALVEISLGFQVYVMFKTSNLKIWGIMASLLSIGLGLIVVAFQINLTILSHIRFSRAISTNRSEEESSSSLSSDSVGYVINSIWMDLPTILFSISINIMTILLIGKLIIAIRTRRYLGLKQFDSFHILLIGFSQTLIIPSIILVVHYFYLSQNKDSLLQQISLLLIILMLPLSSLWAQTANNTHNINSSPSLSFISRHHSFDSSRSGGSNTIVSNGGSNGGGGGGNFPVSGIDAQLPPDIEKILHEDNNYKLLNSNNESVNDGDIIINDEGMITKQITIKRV"}, "source": "paper PMC5489263", "about": "(Science Advances, 2017)", "target": "C. albicans mating receptor (Ca.Ste2) (Candida albicans, UniProt A0A1D8PTB4)", "assay": "cell-based", "note": "pEC50: −log10 of the molar value."}
{"compound": "CC(C)C[C@H](NC(=O)[C@H](CCCNC(=N)N)NC(=O)[C@H](Cc1ccccc1)NC(=O)CN)C(=O)N[C@H](C(=O)N[C@@H](CC(N)=O)C(=O)N[C@@H](Cc1ccccc1)C(=O)NCC(=O)N[C@@H](Cc1ccc(O)cc1)C(=O)N[C@@H](Cc1ccccc1)C(=O)N[C@@H](CCC(=O)O)C(=O)N1CCC[C@H]1C(=O)NCC(=O)O)[C@@H](C)O", "note": "[C. albicans mating peptide]", "values": [{"measurement": "pEC50", "result": 8.38}]}
